High-throughput results (PubChem BioAssay)
Nrf2 block = inhibitors of Nrf2 signaling | A549 ARE-Fluc reporter, luciferase luminescence, 18-24 h | actives 2.1% (n = 360,000) | Potency, µM (highest dose often 46 µM), for inactives: top-dose activity change, negative = inhibition, most hits filed as inhibitors; note: potency is the fitted concentration of half-maximal effect; % is set by controls: 0 for no effect and ±100 for the full control effect; nearly all actives have a fitted effect of over 60% in size
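Nrf2 function is reported as luminescence of an ARE-controlled luciferase in A549 cells. Compounds were tested at several concentrations, and a CellTiter-Fluor read on the same wells flagged cytotoxicity.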
IL2 activator = IL-2 activation. actives 0.065% (n = 360,000). activation, % (series mostly up to about 46 µM). IL-2 activation reporter assay, cell-based qHTS; stimulated with anti-CD3/CD4/CD28 beads; in transgenic mouse T cells. AID 652025; in the data active = activation above about 50%; inconclusive = mostly about 30% to 49%; note: 0% is about no effect
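Unstimulated transgenic mouse T cells preincubated 60 min with compound, then stimulated with anti-CD3/anti-CD4-coated beads plus anti-CD28 for 18 h at 37 degrees C. IL-2 response read as EGFP and DsRed fluorescence by plate cytometry.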
Nrf2 ARE act = activators of Nrf2 (ARE) signaling; Potency, µM (titrated, usually from 46.1 µM), for inactives: at the highest dose activation, actives largely listed as activators; actives 0.31% (n = 410,000); AREc32 ARE-luciferase reporter (MCF7-derived line), luminescence, 24 h; note: potency is the fitted concentration of half-maximal effect; % of control where 0% means no effect; nearly all actives have a fitted effect of over 65% in size
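AREc32 cells carrying an ARE-driven firefly luciferase, 1000 cells/well in OPTI-MEM with 5% FBS, dosed after overnight attachment and incubated 24 hr at 37 deg C. Steady-Glo luminescence read after 30 min at RT.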
miR-21 reporter = raises the signal of a miR-21 reporter; Potency, µM (doses to about 38.3 µM), inactives show top-dose reporter change, positive = more light; HeLa miR-21 FLuc reporter, luciferase, 48 h; AID 2288; 340,000 tested, under 10 active; active = well fitted rising curve with a large enough effect; inconclusive = small, poorly fitted or top-dose-only effect; inactive = no such curve, though single readings can be large or run the other way;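 further: % of control where 0% means no effect; miR-21 action dims this reporter so a rising signal means less miR-21 action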
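Compounds were titrated across several concentrations (up to approximately 40 uM) and incubated 48 hours with HeLa miR-21-FLuc reporter cells (miR-21 target sequence downstream of FLuc, endogenous miR-21). Readout was firefly luciferase luminescence after lytic detection reagent.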
A549 viability = counter-screen for Nrf2 inhibitors: cytotoxicity in A549 cells | A549 ARE-Fluc cells, CellTiter-Fluor viability, 18-24 h | Potency, µM (highest dose often 46 µM), for the others: at the highest dose activity change, negative = cytotoxicity, actives largely listed as inhibitors | actives 0.16% (n = 390,000); note: potency is the fitted concentration of half-maximal effect; % is set by controls: 0 for no effect and ±100 for the full control effect
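Cytotoxicity counterscreen: CellTiter-Fluor fluorescence was measured in A549 ARE_Fluc cells after 18-24 h of compound exposure in a concentration series. The subsequent BugLite luminescent read reports ARE-luciferase activity.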
ClpP mod = qHTS Assay for Activators of ClpP. ATP-dependent Clp protease proteolytic subunit (Bacillus subtilis (strain 168)), P80244. purified B. subtilis ClpP, FRET peptide cleavage, 20 min. Potency, µM (titrated, usually from 57.5 µM), for the others: at the top dose activity change, negative = active. actives 1.9% (n = 340,000). AID 651965, 2013; active = well fitted falling curve with a large enough effect; inconclusive = small, poorly fitted or top-dose-only effect; inactive = no such curve, though single readings can be large or run the other way; note: potency is the fitted concentration of half-maximal effect; the source files actives as falling curves though it sought activators and does not explain the sign; nearly all actives have a fitted effect of over 65% in size
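Buffer: 100 mM Tris/HCl pH8, 100 mM KCl, 0.05% low protease BSA, 2.5% glycerol, 0.01% Tween-20. ClpP 10 microg/mL final; 20 min RT; delta FRET normalized to ADEP and DMSO controls.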
* hit, by the source's call; u = inconclusive; x = no result; [ ] = remark or other dose. Compounds with a hit are over-represented: about 3.7% of the library has one in this group of screens. Unless noted, calls come from the whole dose curve; as a rule, active = well fitted curve in the direction sought with a large enough effect; inconclusive = small, poorly fitted or top-dose-only effect, or another doubt; inactive = no such curve, though single readings can be large; an effect the other way counts as inactive or inconclusive.

1: O=C(NCCCO)C(=O)NCC(c1ccc2c(c1)OCO2)N1CCOCC1 (stereo not drawn)
2: COc1ccc(N2CCN(C(=O)CN3C(=O)NC(C)(c4ccc5ccccc5c4)C3=O)CC2)cc1 (stereo not drawn)
3: CC(=O)N1CCN(C(=O)CN2C(=O)NC(C)(c3ccc4ccccc4c3)C2=O)CC1 (stereo not drawn)
4: CCOC(=O)c1c(C)[nH]c(C(=O)CN2C(=O)NC(C)(c3ccc4ccccc4c3)C2=O)c1C (stereo not drawn)
5: Cc1ccc(CC(=O)Nc2ccc(S(=O)(=O)Nc3ncccn3)cc2)cc1

assay / entry | 1 | 2 | 3 | 4 | 5
Nrf2 block | x | u | -10% | 26µM* | -19%
IL2 activator | x | 0 | -2 | 1 | 0
Nrf2 ARE act | 0% | 4% | 0% | 2% | 0%
miR-21 reporter | -4% | x | x | 6% | -7%
A549 viability | 10% | -10% | 6% | -19% | 0%
ClpP mod | -2% | 28µM* | -2% | -3% | x

6: O=C(CCc1c[nH]c2ccccc12)Nc1ccc(S(=O)(=O)Nc2ncccn2)cc1
7: O=C1CN(C(=O)c2ccccc2C(F)(F)F)C(c2ccccc2)c2cc(F)ccc2N1 (stereo not drawn)
8: O=C(Nc1cccc(Cl)c1)N1CCN2C(=O)c3ccccc3C12c1ccccc1 (stereo not drawn)
9: O=C(CCl)N1CCN2C(=O)c3ccccc3C12c1ccc(Cl)cc1 (stereo not drawn)
10: CCOc1ccc(S(=O)(=O)c2cn(Cc3ccccc3C)c3ccc(OC)cc3c2=O)cc1

assay / entry | 6 | 7 | 8 | 9 | 10
Nrf2 block | -3% | -8%[9.27 µM] | 21µM* | -18% | -11%
IL2 activator | -1 | x | -1 | -1 | x
Nrf2 ARE act | 0% | 4% | 3% | u | 1%
miR-21 reporter | -2% | -1% | u | u | 9%
A549 viability | -2% | 1% | u | 1% | 3%
ClpP mod | 32µM* | 1% | 16µM* | x | u

11: CC12C=CC(=O)C=C1CCC1C2C(=O)CC2(C)C1CCC2(O)C(=O)CO (stereo not drawn)
12: CCCc1nn(C)c2c(=O)[nH]c(-c3ccccc3OCC)nc12
13: O=C(CSc1nc2c([nH]c3ccccc32)c(=O)n1-c1ccccc1)N1CCc2ccccc21
14: Cc1ccc(-n2c(SCC(=O)NCc3ccc(F)cc3)nc3c([nH]c4ccccc43)c2=O)cc1
15: O=C(CSc1nc2c([nH]c3ccccc32)c(=O)n1-c1ccc(F)cc1)Nc1ccc2c(c1)OCCO2

assay / entry | 11 | 12 | 13 | 14 | 15
Nrf2 block | 0.29µM* | 0% | x | x | x
IL2 activator | -1 | 0 | x | x | x
Nrf2 ARE act | 3% | 2% | 4% | 0% | 1%
miR-21 reporter | x | -5% | 3% | 0% | 7%
A549 viability | 1% | -11% | -1% | -15% | -19%
ClpP mod | 2% | 20µM* | 28µM* | 32µM* | 22µM*

16: Cc1cc(C)cc(-n2c(SCC(=O)NCc3ccc(F)cc3)nc3c([nH]c4ccccc43)c2=O)c1
17: Cc1cc(NC(=O)CSc2nc3c([nH]c4ccccc43)c(=O)n2-c2cccc(C(F)(F)F)c2)no1
18: O=C(CSc1nc2c([nH]c3ccccc32)c(=O)n1-c1ccc(F)cc1)N1CCc2ccccc21
19: O=C(c1ccccc1Cl)N1CCCC(c2nc3c(nnn3Cc3ccc(F)cc3F)c(=O)[nH]2)C1 (stereo not drawn)
20: CCC(C(=O)N1CCN(c2cc(Cl)ccc2C)CC1)n1nc(C)c2sc3ccccc3c2c1=O (stereo not drawn)
21: COc1ccccc1CNC(=O)CN1C(=O)CSc2ccc(S(=O)(=O)N(C)C)cc21
22: Cc1ccc(CNC(=O)C(=O)NCC(c2ccco2)S(=O)(=O)c2ccccc2)cc1 (stereo not drawn)

assay / entry | 16 | 17 | 18 | 19 | 20 | 21 | 22
Nrf2 block | x | -28% | x | -5% | u | u | x
IL2 activator | x | 2 | x | x | x | x | x
Nrf2 ARE act | 6% | 7% | 2% | 3% | -1% | -1% | 0%
miR-21 reporter | 3% | 0% | 2% | 0% | -15% | -1% | 2%
A549 viability | -8% | u | 3% | u | -25% | 14% | 9%
ClpP mod | -11% | 28µM* | -15% | -10% | -1% | 2% | 3%

Single records (already shown). Order of values: Nrf2 block, IL2 activator, Nrf2 ARE act, miR-21 reporter, A549 viability, ClpP mod
Cc1cc(NC(=O)CSc2nc3c([nH]c4ccccc43)c(=O)n2-c2cccc(C(F)(F)F)c2)no1 is listed with -28%, 2, 7%, 0%, u, 28µM*
O=C(CSc1nc2c([nH]c3ccccc32)c(=O)n1-c1ccc(F)cc1)N1CCc2ccccc21 is listed with x, x, 2%, 2%, 3%, -15%
CCC(C(=O)N1CCN(c2cc(Cl)ccc2C)CC1)n1nc(C)c2sc3ccccc3c2c1=O (stereo not drawn) is listed with u, x, -1%, -15%, -25%, -1%
